The term Ki denotes the equilibrium dissociation constant of an inhibitor or competing ligand from its target.

The chains behind the UniProt entries cited, without tags or fusion partners. Where a name states a change or a piece, a line headed by the entry shows the natural chain unless it says otherwise.
UniProt Q5S007: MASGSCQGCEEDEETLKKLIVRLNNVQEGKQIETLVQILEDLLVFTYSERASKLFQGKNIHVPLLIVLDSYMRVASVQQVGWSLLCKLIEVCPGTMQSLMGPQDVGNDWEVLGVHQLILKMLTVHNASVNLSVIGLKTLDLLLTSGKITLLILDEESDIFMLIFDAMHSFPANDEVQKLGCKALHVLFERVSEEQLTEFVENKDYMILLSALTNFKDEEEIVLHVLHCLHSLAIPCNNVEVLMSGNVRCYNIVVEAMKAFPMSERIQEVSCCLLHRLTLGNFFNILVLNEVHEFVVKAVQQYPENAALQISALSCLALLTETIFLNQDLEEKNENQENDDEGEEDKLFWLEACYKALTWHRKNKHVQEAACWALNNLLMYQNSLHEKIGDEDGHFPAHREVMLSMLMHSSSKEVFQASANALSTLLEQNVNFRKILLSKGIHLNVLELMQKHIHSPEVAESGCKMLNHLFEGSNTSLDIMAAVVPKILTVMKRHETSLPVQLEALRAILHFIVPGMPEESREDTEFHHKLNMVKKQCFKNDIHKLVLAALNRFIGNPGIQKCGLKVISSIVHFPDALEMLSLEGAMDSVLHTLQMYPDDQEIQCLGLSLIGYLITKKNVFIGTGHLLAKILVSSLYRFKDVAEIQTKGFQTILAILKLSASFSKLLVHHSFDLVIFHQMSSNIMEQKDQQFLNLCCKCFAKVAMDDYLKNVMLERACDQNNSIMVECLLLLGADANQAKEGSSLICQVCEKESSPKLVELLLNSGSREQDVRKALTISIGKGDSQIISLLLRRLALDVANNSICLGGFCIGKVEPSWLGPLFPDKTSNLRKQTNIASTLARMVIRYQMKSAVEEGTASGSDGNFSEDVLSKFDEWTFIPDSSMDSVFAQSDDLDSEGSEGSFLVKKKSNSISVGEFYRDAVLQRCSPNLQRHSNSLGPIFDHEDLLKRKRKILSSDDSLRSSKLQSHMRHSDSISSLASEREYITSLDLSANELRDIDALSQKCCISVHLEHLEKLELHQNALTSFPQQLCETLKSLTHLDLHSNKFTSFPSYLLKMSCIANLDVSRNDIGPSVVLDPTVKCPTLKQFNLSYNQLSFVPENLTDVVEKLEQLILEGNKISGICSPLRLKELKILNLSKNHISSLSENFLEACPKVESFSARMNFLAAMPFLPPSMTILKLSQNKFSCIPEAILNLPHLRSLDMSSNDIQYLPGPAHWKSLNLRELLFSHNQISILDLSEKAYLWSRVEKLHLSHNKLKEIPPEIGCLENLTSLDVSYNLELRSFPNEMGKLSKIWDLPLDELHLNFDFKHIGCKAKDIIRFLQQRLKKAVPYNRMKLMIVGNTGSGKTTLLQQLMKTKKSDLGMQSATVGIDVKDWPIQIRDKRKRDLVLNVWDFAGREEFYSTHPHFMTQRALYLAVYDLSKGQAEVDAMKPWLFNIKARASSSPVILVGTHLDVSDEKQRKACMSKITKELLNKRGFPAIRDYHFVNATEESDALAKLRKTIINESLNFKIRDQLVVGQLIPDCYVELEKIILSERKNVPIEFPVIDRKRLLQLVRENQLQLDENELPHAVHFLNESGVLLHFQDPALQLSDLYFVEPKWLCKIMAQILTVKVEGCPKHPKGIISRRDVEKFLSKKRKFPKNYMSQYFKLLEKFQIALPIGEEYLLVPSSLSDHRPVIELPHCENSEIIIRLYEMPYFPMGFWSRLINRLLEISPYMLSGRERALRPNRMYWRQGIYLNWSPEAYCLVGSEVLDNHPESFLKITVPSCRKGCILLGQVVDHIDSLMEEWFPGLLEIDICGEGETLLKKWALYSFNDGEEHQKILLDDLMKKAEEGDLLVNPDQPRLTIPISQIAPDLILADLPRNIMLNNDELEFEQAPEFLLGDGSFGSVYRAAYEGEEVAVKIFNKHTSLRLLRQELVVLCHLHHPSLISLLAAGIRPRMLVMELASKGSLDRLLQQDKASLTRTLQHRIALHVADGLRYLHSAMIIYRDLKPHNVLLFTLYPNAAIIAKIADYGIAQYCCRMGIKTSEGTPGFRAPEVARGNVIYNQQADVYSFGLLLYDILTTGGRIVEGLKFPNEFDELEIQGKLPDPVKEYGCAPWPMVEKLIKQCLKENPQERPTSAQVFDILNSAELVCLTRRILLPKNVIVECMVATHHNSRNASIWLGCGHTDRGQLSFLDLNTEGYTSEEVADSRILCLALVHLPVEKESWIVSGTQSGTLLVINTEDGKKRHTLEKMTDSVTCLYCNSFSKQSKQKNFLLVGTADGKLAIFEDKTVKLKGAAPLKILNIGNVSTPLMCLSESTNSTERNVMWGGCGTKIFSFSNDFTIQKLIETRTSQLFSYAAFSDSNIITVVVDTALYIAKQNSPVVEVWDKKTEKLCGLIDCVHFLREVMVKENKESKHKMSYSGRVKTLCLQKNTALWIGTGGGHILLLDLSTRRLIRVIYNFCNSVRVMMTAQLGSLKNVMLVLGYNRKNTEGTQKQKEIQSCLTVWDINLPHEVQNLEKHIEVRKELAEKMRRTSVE

SMILES strings stand for the structures.

The text below walks through data of patent publication US9139566B2, “Fluorine-18 and carbon-11 labeled radioligands for positron emission tomography (PET) imaging for LRRK2” (Genentech, Inc., priority 2011, dated 2015).

For the experiment, the target named is LRRK2 (Homo sapiens, UniProt Q5S007). Put plainly: LRRK2 affinity (Ki). The class given is binding. Particulars: LRRK2 affinity (micromolar), Table 1.

The molecule `CNc1nc(Nc2ccc(CN3CCOCC3)cc2OCCF)ncc1Cl` [Compound 23, 5-chloro-N2-(2-(2-fluoroethoxy)-4-(morpholinomethyl)phenyl)-N4-methylpyrimidine-2,4-diamine] came in with a Ki of 8.9 nM.
